{"source": "patent US9351926B2", "about": "(Pharmaceutical Solutions Industry Ltd., priority 2012, dated 2016)", "origin": "cited, not measured here", "details": "in vivo"}
{"smiles": "CC(C)Cc1ccc(C(C)C(=O)O)cc1", "note": "(racemic) [Ibuprofen, (RS)-2-(4-(2-methylpropyl)phenyl) propanoic acid]", "values": [{"measurement": "Metabolism", "result": "Hepatic (CYP2C9)"}]}
